Results reported in patent US11584745B2, “Aromatic heterocyclic compound, intermediate thereof, preparation method therefor, and pharmaceutical composition and use thereof” (SHANGHAI YINGLI PHARMACEUTICAL CO., LTD, priority 2018, dated 2023).

The chains behind the UniProt entries cited, without tags or fusion partners. Residues count along the entry.
UniProt P36897, 34-503 limits assumed: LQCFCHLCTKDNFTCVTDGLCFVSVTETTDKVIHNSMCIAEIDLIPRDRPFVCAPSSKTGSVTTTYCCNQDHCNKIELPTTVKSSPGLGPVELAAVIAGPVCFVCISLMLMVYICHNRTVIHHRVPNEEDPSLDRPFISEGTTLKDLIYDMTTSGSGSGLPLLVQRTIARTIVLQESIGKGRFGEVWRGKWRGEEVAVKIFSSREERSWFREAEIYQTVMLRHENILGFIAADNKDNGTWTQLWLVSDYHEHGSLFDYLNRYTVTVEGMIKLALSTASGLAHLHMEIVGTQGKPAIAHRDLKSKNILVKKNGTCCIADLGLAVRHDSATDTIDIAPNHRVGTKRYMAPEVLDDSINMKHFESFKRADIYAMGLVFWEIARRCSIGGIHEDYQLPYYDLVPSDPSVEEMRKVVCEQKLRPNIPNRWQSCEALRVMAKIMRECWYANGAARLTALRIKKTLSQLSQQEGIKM

Target: ALK5 (Homo sapiens (Human), UniProt P36897)
Assay: Evaluation experiment of ALK5 enzyme activity inhibition IC50 (ADP-Glo kinase assay)
Format: biochemical
Conditions: read-out: ALK5 IC50; 25 nM ALK5, 0.1 mg/mL peptide TGFbR1, 7 μM ATP, 30° C. 1 hour, ADP-Glo luminescence

- IC50: > 10 µM
Structure (SMILES): N#Cc1cnc2ccc(-n3cncc3-c3cccc(C(F)(F)F)n3)cn12
